## scFv variants of Ab-14 (heavy chain) against a SARS-CoV-2 spike peptide

Values reported by Li et al. 2023, doi:10.1038/s41467-023-39022-2 (FLAb copy).

Target: peptide PDVDLGDISGINAS, taken from heptad repeat 2 (HR2) of SARS-CoV-2 spike.

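The starting antibody came from a phage panning campaign against this peptide. These sequences belong to a second round, designed from the earlier measurements on random variants of the parent. Group labels follow the data file (Ctrl: baseline library sampled from a position-specific scoring matrix, with some repeated check sequences; En: ensemble of fine-tuned language models; GP: Gaussian process model; GPLM: also part of the Gaussian process libraries; HC: hill climbing; Gen: genetic algorithm; Gibbs: Gibbs sampling; a sequence that several methods proposed may carry one label only). Affinity was read by AlphaSeq, a pooled yeast mating assay with surface-displayed partners. The frequency of each diploid, read from paired DNA barcodes, reflects how well the two displayed proteins bind. Read counts were normalised to the haploid input and turned into Kd by a linear fit to BCL2-family pairs of known affinity, for each replicate. The assay was run in six technical replicates.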

Ab-14 is the parent antibody, in scFv form: VH, then three GGGGS repeats, then VL. The light chain is unchanged in all variants.
VH: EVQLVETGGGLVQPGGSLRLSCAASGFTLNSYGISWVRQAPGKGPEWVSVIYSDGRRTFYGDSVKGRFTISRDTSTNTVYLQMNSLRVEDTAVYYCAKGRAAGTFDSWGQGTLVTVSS
VL: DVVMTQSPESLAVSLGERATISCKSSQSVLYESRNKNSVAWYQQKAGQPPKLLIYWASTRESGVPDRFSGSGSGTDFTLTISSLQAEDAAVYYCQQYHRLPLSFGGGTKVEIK

Each variant's VH is given in full.
Scale: log10 of Kd in nM, estimated from mating counts; low values are strong binders.
Replicates are averaged; those with no signal do not enter the mean.
"nd" means that the variant was in the library but no mating with the target was seen in any replicate; the authors take this as a sign of poor binding, and no number exists.
The authors averaged sequences with at least three values out of six and counted those with two or fewer as poor binders.
Background: pairings of all heavy chain designs with three empty control strains gave a value in 1% of cases (median 2.08, 5th percentile 0.84). Values in that range, when seen in few replicates, are hard to tell from nonspecific mating.
Values of this round are not directly comparable with the first-round values of the same sequences.
The parent sequence was in this pool as ten entries: three were never detected, three once, and four in most replicates, with averages from 0.34 to 2.37.

VH | group | log10 Kd (nM), mean | replicates with signal
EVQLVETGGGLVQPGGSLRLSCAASGFTINSYGISWVRQAPGKGPEWVSVIYSDGRRTFYGDAVKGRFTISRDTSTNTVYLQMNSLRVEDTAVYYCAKGRAAGTFDSWGQGTLVTVSS | Ctrl | -0.26 | 6 of 6
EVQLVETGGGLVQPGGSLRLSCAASGFTLNEYGISWVRQAPGKGPEWVSVIYSDGRRTFYADSVKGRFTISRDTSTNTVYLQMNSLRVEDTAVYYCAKGRFAGTFSSWGQGTLVTVSS | GPLM_HC | 1.40 | 6 of 6
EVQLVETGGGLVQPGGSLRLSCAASQFDLNSYGISWVRQAPGKGPEWVSVIYSDGRRTFYADSVKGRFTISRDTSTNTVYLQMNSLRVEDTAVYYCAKGNVAGTFDSWGQGTLVTVSS | GP_Gibbs | 0.03 | 6 of 6
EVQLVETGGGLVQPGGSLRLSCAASGFDLEDYGISWVRQAPGKGPEWVSVIYADGRRTAYIDSVKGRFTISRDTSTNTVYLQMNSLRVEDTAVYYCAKGEVAGTFDVWGQGTLVTVSS | En_HC | -0.87 | 6 of 6
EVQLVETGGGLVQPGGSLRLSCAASGFDLEEYGISWVRQAPGKGPEWVSVIYADGMRQMYAQNFKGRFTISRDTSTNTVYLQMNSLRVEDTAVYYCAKGYNGSDMTVWGQGTLVTVSS | En_Gibbs | nd | 0 of 6
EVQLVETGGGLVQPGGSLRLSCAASGFDLNEYGISWVRQAPGKGPEWVSVIYADGVRRTYQDAVKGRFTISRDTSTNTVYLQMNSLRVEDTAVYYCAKVHNSGVIDVWGQGTLVTVSS | En_Gibbs | nd | 0 of 6
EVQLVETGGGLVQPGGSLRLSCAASGFDLNEYGISWVRQAPGKGPEWVSVIYADGMRTFYADDVKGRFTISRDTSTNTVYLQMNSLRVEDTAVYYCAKGTNAGTFDVWGQGTLVTVSS | En_Gen | -0.93 | 6 of 6
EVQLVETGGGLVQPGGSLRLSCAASGFDLNEYGISWVRQAPGKGPEWVSVIYADGVRTFYSDSVKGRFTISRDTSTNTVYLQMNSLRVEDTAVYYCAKGTNGGTFDMWGQGTLVTVSS | En_HC | 0.32 | 6 of 6
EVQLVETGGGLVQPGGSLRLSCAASGFDLNEYGISWVRQAPGKGPEWVSVIYADGMRTAYADSVKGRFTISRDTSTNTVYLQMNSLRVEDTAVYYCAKGEQAGTFDLWGQGTLVTVSS | En_Gen | -0.37 | 6 of 6
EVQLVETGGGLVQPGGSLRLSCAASGFDLDEYGISWVRQAPGKGPEWVSVIYADGKRTVYADSVKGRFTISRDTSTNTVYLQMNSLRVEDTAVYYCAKGENAGTFDVWGQGTLVTVSS | En_Gen | 0.10 | 6 of 6
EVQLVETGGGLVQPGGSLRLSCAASGFGLNSYGISWVRQAPGKGPEWVSVIYSDGRRTFYTDSVKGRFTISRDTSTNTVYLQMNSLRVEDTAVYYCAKGRTAGTFDSWGQGTLVTVSS | GPLM_Gen | 1.50 | 6 of 6
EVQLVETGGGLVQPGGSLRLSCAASGFTLNSYGISWVRQAPGKGPEWVSVIYSDGRRTFYDDSVKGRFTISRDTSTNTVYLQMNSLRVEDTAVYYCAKGQAAFTFSSWGQGTLVTVSS | Ctrl | nd | 0 of 6
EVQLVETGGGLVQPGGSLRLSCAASGFDLNSYGISWVRQAPGKGPEWVSVIYSDGRRTFYDDSVKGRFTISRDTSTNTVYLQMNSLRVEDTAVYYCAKGEAAGTFDSWGQGTLVTVSS | GP_Gen | 0.60 | 6 of 6
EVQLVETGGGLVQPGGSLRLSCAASGFTLGSYGISWVRQAPGKGPEWVSVIYSDGRRTFYIDSVKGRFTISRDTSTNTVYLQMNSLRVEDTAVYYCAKGNAAGTFDSWGQGTLVTVSS | Ctrl | nd | 0 of 6
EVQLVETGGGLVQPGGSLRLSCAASGGDIQEYGISWVRQAPGKGPEWVSVIYADGQRAYYSDAVKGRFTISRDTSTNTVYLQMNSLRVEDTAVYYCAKGNIGAIFSDWGQGTLVTVSS | En_Gibbs | nd | 0 of 6
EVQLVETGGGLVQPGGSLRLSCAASGFELNEYGISWVRQAPGKGPEWVSVIYSDGRRTFYGDSVKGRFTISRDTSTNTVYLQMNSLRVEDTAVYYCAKGKAAGTFDKWGQGTLVTVSS | GP_Gen | 0.86 | 5 of 6

The opening 2 entries, copied out:

| VH | group | log10 Kd (nM), mean | replicates with signal |
|---|---|---|---|
| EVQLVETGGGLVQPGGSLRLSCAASGFTINSYGISWVRQAPGKGPEWVSVIYSDGRRTFYGDAVKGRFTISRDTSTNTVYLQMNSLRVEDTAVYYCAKGRAAGTFDSWGQGTLVTVSS | Ctrl | -0.26 | 6 of 6 |
| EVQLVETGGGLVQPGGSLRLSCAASGFTLNEYGISWVRQAPGKGPEWVSVIYSDGRRTFYADSVKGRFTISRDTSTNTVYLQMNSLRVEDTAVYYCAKGRFAGTFSSWGQGTLVTVSS | GPLM_HC | 1.40 | 6 of 6 |